Consider one substance from US20130171069A1.

The target in assay [1] is Na+/K+-ATPase alpha3 subunit (NAKalpha3) of mature rat hippocampus-derived primary cultured neurons (rat) (UniProt P06687). Put plainly: cell-based or functional assay.
For assay [2] the target is unchanged. Put plainly: Scatchard plot; synthetic ASPD on mature rat hippocampal neurons, bound ASPD measured with anti-ASPD antibodies.

Bounds are passed on as bounds.

Broadly, the Kd is the equilibrium constant for the complex coming apart. A higher Kd goes with lower affinity.

In turn, “synthetic amylospheroid (synthetic ASPD) (from UniProt P05067 672-713)” returned an NAKα3 activity (ouabain-sensitive ATPase activity of cell membranes about 24 hours after ASPD) in assay [1] of under 20%. For the same substance, the Kd in assay [2] came to 150 nM.
